# IL2 activator: IL-2 activation; activation, % (series mostly up to about 46 µM); AID 652025; hit rate 0.065% among 360,000; IL-2 activation reporter assay, cell-based qHTS; stimulated with anti-CD3/CD4/CD28 beads; in transgenic mouse T cells; in the data active = activation above about 50%; inconclusive = mostly about 30% to 49%; note: 0% is about no effect
#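 Readout: EGFP and DsRed signals by fluorescent plate cytometry. Unstimulated transgenic mouse T cells received compound 60 min before antibody-bead stimulation, then incubated 18 h at 37 degrees C.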
# Epigenetic derep: epigenetic control regulation, reporter derepression | hit rate 0.2% among 280,000 | AID 1865 | Potency, µM (top dose mostly 53.9 µM), inactives show top-dose GFP activation, usual class: activators | murine LDR cells, GFP reporter derepression, 30 h; note: potency is the fitted concentration of half-maximal effect; % of control where 0% means no effect; nearly all actives have a fitted effect of over 60% in size
#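 In this reporter-derepression format, murine cells bearing a silenced integrated CMV-GFP locus incubate with test compound (30 h, 37 C), then are washed and imaged; fluorescent objects of 20–120 um count as induced cells.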
# uPA surface inh: inhibitors of cell surface uPA generation. hit rate 0.31% among 330,000. Potency, µM (highest dose often 38.3 µM), without a hit: top-dose activity change, negative = inhibition, most hits filed as inhibitors. cell surface uPA generation assay, qHTS; active = well fitted inhibition curve with a large enough effect; inconclusive = small, poorly fitted or top-dose-only effect; inactive = no such curve, though single readings can be large or run the other way; tested in mouse RAW 264.7 cells; note: potency is the fitted concentration of half-maximal effect; % is set by controls: 0 for no effect and ±100 for the full control effect; nearly all actives have a fitted effect of over 55% in size
# p53 reactivator: restores transcriptional activity of mutant p53; H1299 p53-A138V BP100-luciferase reporter, luminescence, 24 h; Potency, µM (series often up to 92.2 µM), without a hit: top-dose activity change, positive = activation, hits mostly activators; hit rate 0.063% among 320,000; AID 504706; note: potency is the fitted concentration of half-maximal effect; % of control where 0% means no effect; nearly all actives have a fitted effect of over 45% in size
#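 p53-null H1299 cells stably carrying temperature-sensitive p53-A138V and a BP100-luciferase reporter were pinned with compounds (4-point, 1:5 series) and held 24 hrs at 37 deg C. Luminescence was read 10 min after detection reagent.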
# PINK1 expr mod: modulators of PINK1 expression; PINK1 immunofluorescence, high-content cytometry, 24 h; Potency, µM (titrated, usually from 76.6 µM), without a hit: top-dose activation (PINK1 increase), hits mostly activators; hit rate 0.2% among 410,000; active = well fitted activation curve with a large enough effect; inconclusive = small, poorly fitted or top-dose-only effect; cell line not stated here; note: potency is the fitted concentration of half-maximal effect; % of control where 0% means no effect; nearly all actives have a fitted effect of over 65% in size
#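 Cells are seeded, rested 12 hours, then given compound at five concentrations or DMSO for 24 hours. After fixation, blocking and antibody staining, PINK1 amount and mitochondrial localization are scored; CCCP serves as control.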
# miR-21 reporter: miR-21 reporter, rising signal; Potency, µM (top dose mostly 38.3 µM), for the others: at the highest dose reporter change, positive = more light; 340,000 tested, under 10 active; HeLa miR-21 FLuc reporter, luciferase, 48 h; active = well fitted rising curve with a large enough effect; inconclusive = small, poorly fitted or top-dose-only effect; inactive = no such curve, though single readings can be large or run the other way;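 note: % of control where 0% means no effect; miR-21 action dims this reporter so a rising signal means less miR-21 action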
#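 Compounds were titrated across several concentrations (up to approximately 40 uM) and incubated 48 hours with HeLa miR-21-FLuc reporter cells (miR-21 target sequence downstream of FLuc, endogenous miR-21). Readout was firefly luciferase luminescence after lytic detection reagent.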
# Active calls of the source: *; ? = inconclusive; · = no result; [ ] = dose if it differs, or a comment. An excerpt weighted towards active compounds, which were near 0.62% of everything screened. Unless noted, calls come from the whole dose curve; as a rule, active = well fitted curve in the direction sought with a large enough effect; inconclusive = small, poorly fitted or top-dose-only effect, or another doubt; inactive = no such curve, though single readings can be large; an effect the other way counts as inactive or inconclusive.
(1) c1ccc(-c2cn3ccccc3n2)cc1
(2) Oc1ccc(-c2cn3ccccc3n2)cc1
(3) Cc1ccc(CNc2nc(CN3CCCCC3c3cccnc3)nc3ccccc23)o1 (stereo not drawn)
(4) CCNc1ncc2nc(-c3cn(C)c4ccccc34)c(=O)n(Cc3cccc(OC)c3)c2n1
(5) CCNc1ncc2nc(-c3cn(C)c4ccccc34)c(=O)n(-c3ccc(OC)cc3)c2n1
entry no.	1	2	3	4	5
IL2 activator	0	0	·	·	·
Epigenetic derep	·	0%	·	·	·
uPA surface inh	-6%	4µM*	·	·	·
p53 reactivator	·	7%	·	·	·
PINK1 expr mod	2%	-1%	0%	4%	28µM*
miR-21 reporter	·	0%	·	·	·

(6) CC(C)N1CCc2c(sc(NC(=O)c3cc(-c4cccs4)nc4ccccc34)c2C(N)=O)C1
(7) CC(C)N1CCc2c(sc(NC(=O)c3nc4ccccc4s3)c2C(N)=O)C1
(8) Cc1cccc2sc(NNC(=O)c3ccc(S(=O)(=O)N4CCCC(C)C4)cc3)nc12 (stereo not drawn)
(9) O=C(/C=C/c1ccccc1Cl)Nc1cccc(O)c1
(10) O=C(/C=C/c1ccccc1Cl)Nc1ccccc1
entry no.	6	7	8	9	10
IL2 activator	-2	6	-2	-2	0
Epigenetic derep	18µM*	-4%	4%	-2%	0%
uPA surface inh	?	·	8.9µM*	4.5µM*	-7%
p53 reactivator	-5%	-4%	?	?	?
PINK1 expr mod	1%	25%	?	3%	-1%
miR-21 reporter	0%	-1%	25%	15%	-16%

# One compound at a time, from the list above.
# Entry for O=C(/C=C/c1ccccc1Cl)Nc1cccc(O)c1 = IL2 activator = -2; Epigenetic derep = -2%; uPA surface inh = 4.5µM*; p53 reactivator = ?; PINK1 expr mod = 3%; miR-21 reporter = 15%
# Entry for CC(C)N1CCc2c(sc(NC(=O)c3nc4ccccc4s3)c2C(N)=O)C1 = IL2 activator = 6; Epigenetic derep = -4%; uPA surface inh = ·; p53 reactivator = -4%; PINK1 expr mod = 25%; miR-21 reporter = -1%

# New compounds follow.
(11) CCCCCCN(C(=O)CCl)c1ccccc1
(12) Cn1cc(C(=O)N/N=C/C(Br)=C/c2ccccc2)ccc1=O
(13) Cc1occc1C(=O)N/N=C/C(Br)=C/c1ccccc1
(14) Cn1cc(C(=O)N/N=C/C(Br)=C\c2ccccc2)ccc1=O
(15) Cc1occc1C(=O)N/N=C/c1ccc(-c2ccccc2)cc1
entry no.	11	12	13	14	15
IL2 activator	-1	-3	-1	-3	0
Epigenetic derep	-4%	?	22µM*	7%	·
uPA surface inh	2.5µM*	5.6µM*	-13%	-6%	-8%
p53 reactivator	-12%	?	18%	-8%	?
PINK1 expr mod	-2%	2%	2%	23%	10%
miR-21 reporter	23%	11%	-8%	5%	-17%

(16) COc1cc(=O)n2c(c1C(=O)N(C)Cc1cscn1)CCN(Cc1c(C)[nH]c3ccccc13)CC2
(17) CN(C)C1=NC[C@H](Cc2ccccc2)N1CCCC1CCCC1
(18) CC1=Nc2cc(C(=O)N3CCCC3)ccc2Sc2c(C)ccc(C)c21
(19) NC(=O)c1cc(Cl)ccc1OCC(=O)Nc1ccc2c(c1)OCO2
(20) CC(=O)c1cc(F)ccc1OCC(=O)Nc1ccc2c(c1)OCO2
entry no.	16	17	18	19	20
IL2 activator	·	-4	-1	1	3
Epigenetic derep	·	·	·	·	·
uPA surface inh	·	4µM*	4µM*	6.3µM*	-5%
p53 reactivator	·	-5%	-5%	·	?
PINK1 expr mod	1%	1%	1%	2%	0%
miR-21 reporter	·	·	29%	·	·

(21) Cc1cc(C)n(-c2cccc(C(=O)NCC3Cc4cccc(-c5ccccn5)c4O3)c2)n1 (stereo not drawn)
(22) COC(=O)/C(=C\C(=O)c1ccccc1)Nc1cccc(C(F)(F)F)c1
(23) O=C1/C(=C/c2cccnc2)CC/C1=C\c1cccnc1
(24) O=C1/C(=C/c2cccnc2)CCC/C1=C\c1cccnc1
(25) CCc1ccc(-c2nc3c(=O)n(C)c(=O)nc-3n(CC)n2)cc1
entry no.	21	22	23	24	25
IL2 activator	·	-2	0	-4	·
Epigenetic derep	·	1%	-2%	?	·
uPA surface inh	·	3%	-1%	8.9µM*	·
p53 reactivator	·	28µM*	14%	-15%	·
PINK1 expr mod	0%	1%	5%	-2%	0%
miR-21 reporter	·	-38%	-1%	?	·

(26) CCn1cc(Br)c(C(=O)NC(C)c2ccccc2)n1 (stereo not drawn)
(27) O=C(NNC(=S)NC(=O)c1ccccc1[N+](=O)[O-])c1ccccc1O
(28) O=C(NNC(=S)NC(=O)c1ccccc1[N+](=O)[O-])c1ccccc1[N+](=O)[O-]
(29) CSc1nnc(CNC(=O)c2c(-c3ccccc3)noc2C)n1-c1ccc(F)cc1
(30) COC(=O)N1C(=O)[C@@](c2ccccc2)(C2CCCC2)N1C(=O)OC
entry no.	26	27	28	29	30
IL2 activator	72*	2	-1	·	0
Epigenetic derep	0%	0%	0%	·	·
uPA surface inh	9%	-9%	9%	·	7.1µM*
p53 reactivator	·	-1%	-1%	·	-8%
PINK1 expr mod	1%[38.3 µM]	28µM*	3%[38.3 µM]	1%	1%
miR-21 reporter	-9%	13%	-1%	·	7%

(31) CC(=O)/C(=C/c1ccccc1)C(=O)Nc1ccccc1C
(32) CC(C)CN1C(=O)/C(=C/c2c(N3CCc4ccccc4C3)nc3ccccn3c2=O)SC1=S
(33) CCOC(=O)CC1C(=O)NCCN1c1nc2c(C)cccn2c(=O)c1/C=C1\SC(=S)N(CC(C)C)C1=O (stereo not drawn)
(34) O=C(O)c1ccc(N/N=C/c2cc3cc4c(cc3nc2Cl)OCCO4)cc1
(35) CCOc1ccc(/C=C/c2ccc3ccccc3[n+]2C)cc1OCC
entry no.	31	32	33	34	35
IL2 activator	-5	·	·	-2	·
Epigenetic derep	0%	4.5µM*	7.9µM*	-1%	·
uPA surface inh	2.8µM*	·	·	0.89µM*	·
p53 reactivator	-10%	10%	1%	-3%	·
PINK1 expr mod	-2%	·	·	1%	3%
miR-21 reporter	1%	-11%	6%	26%	·

# 2 consecutive records out of the list so far, quoted:
(31) CC(=O)/C(=C/c1ccccc1)C(=O)Nc1ccccc1C
(32) CC(C)CN1C(=O)/C(=C/c2c(N3CCc4ccccc4C3)nc3ccccn3c2=O)SC1=S
entry no.	31	32
IL2 activator	-5	·
Epigenetic derep	0%	4.5µM*
uPA surface inh	2.8µM*	·
p53 reactivator	-10%	10%
PINK1 expr mod	-2%	·
miR-21 reporter	1%	-11%

# The list goes on.
(36) CS(=O)(=O)N1CCN(Cc2cc3nc(-c4cccc5[nH]ncc45)nc(N4CCOCC4)c3s2)CC1
(37) Cc1ccc(C(=O)c2c3ccc([N+](=O)[O-])cc3[n+]([O-])n2CCC(N)=O)cc1
(38) O=C1NC(=O)C(Cc2ccccc2F)(C2CCN(Cc3cccn3-c3cccnc3)CC2)N1 (stereo not drawn)
(39) N#Cc1ccc(C23OCCN2CCn2c3c3ccccc3[n+]2[O-])cc1 (stereo not drawn)
(40) Cc1ccc(C23OCCN2CCn2nc4ccccc4c23)cc1 (stereo not drawn)
entry no.	36	37	38	39	40
IL2 activator	·	0	·	0	-1
Epigenetic derep	·	·	·	·	·
uPA surface inh	·	1.4µM*	·	2.2µM*	14%
p53 reactivator	·	·	·	9%	-7%
PINK1 expr mod	1%[153 µM]	0%	0%	0%	-1%
miR-21 reporter	·	-10%	·	·	·

(41) COC(=O)[C@@H]1C[C@@H](NC(=O)c2cccc3c(C)c(C)[nH]c23)CN1Cc1cccc2ccccc12
(42) COc1ccccc1C=NN=C(NN=Cc1ccccc1OC)NN=Cc1ccccc1OC
(43) N#C/C(=C/c1ccc(Sc2nc3ccccc3[nH]2)o1)c1cccc(Br)c1
(44) N#C/C(=C/c1ccc(Sc2nc3ccccc3[nH]2)o1)c1cccc(F)c1
(45) Cc1ccc(N=Cc2cc(Cc3ccccc3Cl)cc([N+](=O)[O-])c2O)c(O)c1
(46) Cc1sc2ncnc(N=Nc3c(O)[nH]c4ccccc34)c2c1C
(47) CCc1cc2c(N=Nc3c(O)[nH]c4ccccc34)ncnc2s1
(48) Cc1cc(C(=O)Nc2cccc(-c3nc(CNC(=O)c4sc(C)nc4C)c(C)o3)c2)c(C)o1
entry no.	41	42	43	44	45	46	47	48
IL2 activator	·	-6	-1	-1	-2	13	68*	·
Epigenetic derep	·	·	-10%	5%	0%	?	22µM*	·
uPA surface inh	·	-15%	-11%	·	8.9µM*	0%	-6%	·
p53 reactivator	·	·	-3%	-6%	?	7%	5%	·
PINK1 expr mod	1%	28µM*	18µM*	?	-1%	?	?	0%
miR-21 reporter	·	·	17%	13%	-4%	-17%	0%	·
